Source: US9957247B2, “SecA inhibitors and methods of making and using thereof” (Georgia State University Research Foundation, Inc., priority 2012, dated 2018)

Protein sequences, listed by entry. Tags and fused reporters are not part of them. Lines headed by an entry give the natural chain unless they say otherwise; changes in a name come on top. Residues count along the entry.
UniProt Q9LCT3: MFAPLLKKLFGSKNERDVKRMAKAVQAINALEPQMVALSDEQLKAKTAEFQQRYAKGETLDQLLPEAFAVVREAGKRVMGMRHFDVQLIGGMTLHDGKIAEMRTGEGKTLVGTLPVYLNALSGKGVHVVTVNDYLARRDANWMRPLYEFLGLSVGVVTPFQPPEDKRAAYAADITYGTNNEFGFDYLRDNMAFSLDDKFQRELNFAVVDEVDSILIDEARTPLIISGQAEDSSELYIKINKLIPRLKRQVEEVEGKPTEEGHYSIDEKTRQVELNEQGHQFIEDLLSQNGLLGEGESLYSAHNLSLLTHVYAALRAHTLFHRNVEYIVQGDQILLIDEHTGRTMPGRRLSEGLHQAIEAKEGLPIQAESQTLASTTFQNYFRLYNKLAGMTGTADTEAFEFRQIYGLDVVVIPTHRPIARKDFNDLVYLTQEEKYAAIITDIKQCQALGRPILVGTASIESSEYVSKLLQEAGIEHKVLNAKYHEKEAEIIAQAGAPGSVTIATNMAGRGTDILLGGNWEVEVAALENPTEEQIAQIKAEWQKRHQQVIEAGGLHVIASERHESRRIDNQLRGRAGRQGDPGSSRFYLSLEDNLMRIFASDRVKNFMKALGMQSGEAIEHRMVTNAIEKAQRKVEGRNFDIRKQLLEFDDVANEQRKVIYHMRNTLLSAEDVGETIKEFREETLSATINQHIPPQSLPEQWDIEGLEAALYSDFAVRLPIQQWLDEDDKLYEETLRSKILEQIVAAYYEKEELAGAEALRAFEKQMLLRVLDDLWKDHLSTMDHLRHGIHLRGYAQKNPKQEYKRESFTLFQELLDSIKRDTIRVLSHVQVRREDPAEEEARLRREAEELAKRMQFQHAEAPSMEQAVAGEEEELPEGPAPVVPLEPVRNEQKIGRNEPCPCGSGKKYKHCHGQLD
UniProt P10408, 1-610: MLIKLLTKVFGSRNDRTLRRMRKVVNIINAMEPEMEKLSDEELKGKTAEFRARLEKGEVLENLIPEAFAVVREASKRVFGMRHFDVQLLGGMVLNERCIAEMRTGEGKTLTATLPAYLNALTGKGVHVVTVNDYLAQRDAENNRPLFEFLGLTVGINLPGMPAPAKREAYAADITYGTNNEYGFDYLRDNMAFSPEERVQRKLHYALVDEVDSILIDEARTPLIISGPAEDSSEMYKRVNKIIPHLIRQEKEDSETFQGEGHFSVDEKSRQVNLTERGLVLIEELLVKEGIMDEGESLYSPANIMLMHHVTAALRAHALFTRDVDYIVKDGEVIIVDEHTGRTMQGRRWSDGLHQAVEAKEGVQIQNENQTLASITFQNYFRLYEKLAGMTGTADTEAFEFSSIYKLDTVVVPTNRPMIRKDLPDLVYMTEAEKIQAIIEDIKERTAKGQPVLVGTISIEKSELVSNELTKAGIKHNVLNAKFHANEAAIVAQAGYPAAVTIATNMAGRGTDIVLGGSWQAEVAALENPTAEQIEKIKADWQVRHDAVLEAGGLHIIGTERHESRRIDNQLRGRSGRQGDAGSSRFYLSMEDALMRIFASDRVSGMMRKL

Tests used:
[1] = biological target: PaSecA (Pseudomonas aeruginosa, UniProt Q9LCT3); assay: cell-based; conditions: IC50, Ion Channel activity, Table 1
[2] = biological target: EcSecA N68 (Escherichia coli, UniProt P10408); format: biochemical, E. coli; conditions: read-out: IC50, EcN68 SecA ATPase (unregulated ATPase)

Compound | IC50 [1] [µM] | IC50 [2] [µM]
CSc1nc(Sc2nnc(-c3cc(C(F)(F)F)cc(C(F)(F)F)c3)[nH]2)cc(Sc2nnc(-c3cc(C(F)(F)F)cc(C(F)(F)F)c3)[nH]2)n1 [SCA-21] | 1.5 | –
Dinitrofluorescein [DN, reference compound] | – | 50
